The numbers were not newly measured in article PMC7509035, “[^68Ga]ABY-028: an albumin-binding domain (ABD) protein-based imaging tracer for positron emission tomography (PET) studies of altered vascular permeability and predictions of albumin-drug conjugate transport” (EJNMMI Research, 2020), which cites them from elsewhere.

For data set [1] the following is noted: due to binding to FcRn; ref [14]; cited from earlier work. An excerpt:
(§1) Albumin, the most abundant plasma protein, has been frequently used as a carrier platform to deposit drugs and diagnostic imaging agents in tissues with altered vascular permeability. Albumin’s circulatory half-life is quite long, approximately 20 days, due to its binding to the neonatal Fc receptor (FcRn). Albumin is transported through the normal endothelium by transcellular pathways at a rate of approximately 5% per hour, but the transport pathways change and the rates of and total albumin uptake often increase when endothelial barriers are disrupte ...

The subject of the next data set is normal endothelium. The following applies: transcellular pathways; ref [16]; cited from earlier work.
Text: as §1

For Albumin: most abundant plasma protein, in data set [1], the circulatory half-life result is “approximately 20 days”. Further, the “transport rate through normal endothelium” value with normal endothelium was “approximately 5 % per hour”.
